Patent US20030073837A1, “3-HETEROARYLIDENYL-2-INDOLINONE COMPOUNDS FOR MODULATING PROTEIN KINASE ACTIVITY AND FOR USE IN CANCER CHEMOTHERAPY” (priority 1998, published 2003)

Details: within 3 hours following intravenous administration, rats

Substance: 3-[(2,4-dimethylpyrrol-5-yl)methylidenyl]-2-indolinone
- fraction metabolized: greater than 90%
